In patent publication US8067379B2, “Sulfur compounds as inhibitors of hepatitis C virus NS3 serine protease” (Schering Corporation, priority 2004, dated 2011) one finds Ki data, which are given here for 32 compounds.

Chains of the proteins cited; added tags and fusions are not shown. Residues count along the entry.
UniProt P27958, 1027-1657: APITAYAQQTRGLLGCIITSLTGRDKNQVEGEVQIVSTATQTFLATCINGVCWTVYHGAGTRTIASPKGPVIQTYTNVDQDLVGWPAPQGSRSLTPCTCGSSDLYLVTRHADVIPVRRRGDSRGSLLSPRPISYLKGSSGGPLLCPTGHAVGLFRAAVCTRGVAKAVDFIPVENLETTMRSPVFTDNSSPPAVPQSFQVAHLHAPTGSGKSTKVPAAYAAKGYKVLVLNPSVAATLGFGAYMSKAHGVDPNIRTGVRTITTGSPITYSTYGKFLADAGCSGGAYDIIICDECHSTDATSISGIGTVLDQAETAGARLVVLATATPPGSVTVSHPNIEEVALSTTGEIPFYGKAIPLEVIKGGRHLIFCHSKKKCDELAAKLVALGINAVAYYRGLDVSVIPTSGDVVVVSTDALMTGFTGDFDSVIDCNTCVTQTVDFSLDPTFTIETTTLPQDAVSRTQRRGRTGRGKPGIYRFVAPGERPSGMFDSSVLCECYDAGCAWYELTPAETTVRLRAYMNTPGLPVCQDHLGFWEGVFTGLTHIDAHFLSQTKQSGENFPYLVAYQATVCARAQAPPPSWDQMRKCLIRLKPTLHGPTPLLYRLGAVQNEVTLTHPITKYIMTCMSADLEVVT
UniProt P27958, 1658-1711: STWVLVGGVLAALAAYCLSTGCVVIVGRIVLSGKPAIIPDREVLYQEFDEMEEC

Bounds are passed on as bounds.

The first test addresses Recombinant heterodimeric HCV NS3/NS4A protease (strain 1a) (Hepatitis C virus genotype 1a, UniProt P27958). Description: Spectrophotometric assay for HCV serine protease inhibitory activity (chromogenic ester substrates). The class given is biochemical. Conditions: Table 3, sulfone compounds; HCV serine protease; read-out: Ki* range.
As for `CC(C)(C)[C@H](NC1(CS(=O)(=O)C(C)(C)C)CCC(F)(F)CC1)C(=O)N1C[C@H]2[C@@H]([C@H]1C(=O)NC(CC1CC1)C(=O)C(N)=O)C2(C)C` (some centres unmarked) [Compound 350], the Ki was under 75 nM.

For `CC(C)CCS(=O)(=O)CC1(NC(=O)N[C@H](C(=O)N2C[C@H](O)C[C@H]2C(=O)NC(CC2CCC2)C(=O)C(N)=O)C2CCCCC2)CCCCC1` (some centres unmarked) [Compound 319], the Ki is under 75 nM.

Turning to `C=CCNC(=O)C(=O)C(CCC)NC(=O)[C@@H]1[C@@H]2[C@H](CN1C(=O)[C@@H](NC(=O)NC(C(C)C)C1CCCS1(=O)=O)C(C)(C)C)C2(C)C` (some centres unmarked) [Compound 333], the inhibition constant Ki was over 250 nM.

Turning to `C#CCCC(NC(=O)[C@@H]1[C@@H]2[C@H](CN1C(=O)[C@@H](NC(=O)NC1(CS(=O)(=O)C(C)(C)C)CCCCC1)C(C)(C)C)C21CC1)C(=O)C(N)=O` (some centres unmarked) [Compound 322], the Ki was 75 to 250 nM.

As for `C#CCCC(NC(=O)[C@@H]1[C@@H]2[C@H](CN1C(=O)[C@@H](NC(=O)C1(CS(=O)(=O)C(C)(C)C)CCCCC1)C(C)(C)C)C2(C)C)C(=O)C(=O)NCC=C` (some centres unmarked) [Compound 324], the Ki is under 75 nM.

For the compound `C#CCCC(NC(=O)[C@@H]1[C@@H]2[C@H](CN1C(=O)[C@@H](NC(=O)NC1(CS(=O)(=O)C3CCCC3)CCCCC1)C(C)(C)C)C2(C)C)C(=O)C(=O)NCC=C` (some centres unmarked) [Compound 326], the Ki is under 75 nM.

Regarding `CC(C)C(NC(=O)N[C@H](C(=O)N1C[C@H]2[C@@H]([C@H]1C(=O)NC(CC1CC1)C(=O)C(N)=O)C2(C)C)C(C)(C)C)C1CCCS1(=O)=O` (some centres unmarked) [Compound 332], the Ki is over 250 nM.

For `CC(C)C(NC(=O)N[C@H](C(=O)N1C[C@H]2[C@@H]([C@H]1C(=O)NC(CC1CC1)C(=O)C(N)=O)C2(C)C)C(C)(C)C)C1CCCS1(=O)=O` (some centres unmarked) [Compound 331], the inhibition constant Ki was under 75 nM.

Consider `C#CCCC(NC(=O)[C@@H]1[C@@H]2[C@H](CN1C(=O)[C@@H](NC(=O)NC1(C3CCCS3(=O)=O)CCCCC1)C(C)(C)C)C2(C)C)C(=O)C(=O)NCC=C` (some centres unmarked) [Compound 312], for which the Ki was under 75 nM.

Take `CC(C)(C)[C@H](NC(=O)NC1(C2CCCS2(=O)=O)CCCCC1)C(=O)N1C[C@H]2[C@@H]([C@H]1C(=O)NC(CC1CCC1)C(=O)C(N)=O)C2(C)C` (some centres unmarked) [Compound 335]: the Ki was under 75 nM.

In the case of `CC(C)C(NC(=O)N[C@H](C(=O)N1C[C@H]2[C@@H]([C@H]1C(=O)NC(CC1CCC1)C(=O)C(N)=O)C2(C)C)C(C)(C)C)C1CCCS1(=O)=O` (some centres unmarked) [Compound 330], the Ki was over 250 nM.

Consider `C=CCNC(=O)C(=O)C(CC1CCC1)NC(=O)[C@@H]1[C@@H]2[C@H](CN1C(=O)[C@@H](NC(=O)NC1(CS(=O)(=O)C(C)(C)C)CCCCC1)C1CCCCC1)C2(C)C` (some centres unmarked) [Compound 315], for which the Ki was under 75 nM.

For `C#CCCC(NC(=O)[C@@H]1[C@@H]2[C@H](CN1C(=O)[C@@H](NC(=O)NC1(CS(=O)(=O)C(C)(C)C)CCCCC1)C(C)(C)C)C21CCCC1)C(=O)C(N)=O` (some centres unmarked) [Compound 323], the Ki was under 75 nM.

On to `C=CCNC(=O)C(=O)C(CCC(F)(F)F)NC(=O)[C@@H]1[C@@H]2[C@H](CN1C(=O)[C@@H](NC(=O)NC1(C3CCCS3(=O)=O)CCCCC1)C(C)(C)C)C2(C)C` (some centres unmarked) [Compound 316], for which the Ki was under 75 nM.

On to `C=CCNC(=O)C(=O)C(CC1CCC1)NC(=O)[C@@H]1[C@@H]2[C@H](CN1C(=O)[C@@H](NC(=O)NC1(CS(=O)(=O)C(C)(C)C)CCCCC1)C1Cc3ccccc3C1)C2(C)C` (some centres unmarked) [Compound 318], for which the inhibitory constant (Ki) is under 75 nM.

With `CC1(C)[C@@H]2[C@@H](C(=O)NC(CC3CC3)C(=O)C(N)=O)N(C(=O)[C@@H](NC(=O)NC3(C4CCCS4(=O)=O)CCCCC3)C3CCCCC3)C[C@@H]21` (some centres unmarked) [Compound 342], the inhibitory constant (Ki) is under 75 nM.

Turning to `CC(C)CCS(=O)(=O)CC1(NC(=O)N[C@H](C(=O)N2C[C@H](OCc3ccccc3)C[C@H]2C(=O)NC(CC2CCC2)C(=O)C(N)=O)C2CCCCC2)CCCCC1` (some centres unmarked) [Compound 310], the Ki was under 75 nM.

Consider `C=CCNC(=O)C(=O)C(CCC)NC(=O)[C@@H]1[C@@H]2[C@H](CN1C(=O)[C@@H](NC(=O)NC1(C3CCCS3(=O)=O)CCCCC1)C(C)(C)C)C2(C)C` (some centres unmarked) [Compound 317], for which the Ki is under 75 nM.

In the case of `C=CCNC(=O)C(=O)C(CC1CC1)NC(=O)[C@@H]1[C@@H]2[C@H](CN1C(=O)[C@@H](NC1(CS(=O)(=O)C(C)(C)C)CCC(F)(F)CC1)C(C)(C)C)C2(C)C` (some centres unmarked) [Compound 349], the Ki is under 75 nM.

The test is the same for the next values; noted with them: Table 3A; class symbols; read-out: Ki* Range.
For `C=CCNC(=O)C(=O)C(CCCC)NC(=O)[C@@H]1[C@@H]2[C@H](CN1C(=O)[C@@H](NC(=O)N[C@](C)(CC(C)C)CS(=O)(=O)C(C)(C)C)C1(C)CCCCC1)C2(C)C` (some centres unmarked) [Compound 403], the Ki was under 75 nM.

`C=CCNC(=O)C(=O)C(CC1CC1)NC(=O)[C@@H]1[C@@H]2[C@H](CN1C(=O)[C@@H](NC(=O)N[C@](C)(CC(C)C)CS(=O)(=O)C(C)(C)C)C1(C)CCCCC1)C2(C)C` (some centres unmarked) [Compound 401]: the Ki was under 75 nM.

For `C#CCCC(NC(=O)[C@@H]1[C@@H]2[C@H](CN1C(=O)[C@@H](NC(=O)N[C@](C)(CC(C)C)CS(=O)(=O)C(C)(C)C)C1(C)CCCCC1)C2(C)C)C(=O)C(=O)NCC=C` (some centres unmarked) [Compound 402], the Ki is under 75 nM.

Regarding `C=CCNC(=O)C(=O)C(CC1CC1)NC(=O)[C@@H]1[C@@H]2[C@H](CN1C(=O)[C@@H](NC(=O)NC1(CS(=O)(=O)C(C)C)CCCCC1)C1(C)CCCCC1)C2(C)C` (some centres unmarked) [Compound 408], the Ki is under 75 nM.

`CC1([C@H](NC(=O)NC2(CS(=O)(=O)C(C)(C)C)CCCCC2)C(=O)N2C[C@H]3[C@@H]([C@H]2C(=O)NC(CC2CC2)C(=O)C(=O)NCC2CO2)C3(C)C)CCCCC1` (some centres unmarked) [Compound 407]: the Ki was under 75 nM.

Consider `C=CCNC(=O)C(=O)C(CC1CC1)NC(=O)[C@@H]1[C@@H]2[C@H](CN1C(=O)[C@@H](NC(=O)NC1(CS(=O)(=O)C(C)(C)CCC)CCCCC1)C1(C)CCCCC1)C2(C)C` (some centres unmarked) [Compound 405], for which the Ki is under 75 nM.

`C=CCNC(=O)C(=O)C(CC1CC1)NC(=O)[C@@H]1[C@@H]2[C@H](CN1C(=O)[C@@H](NC(=O)N[C@H]1CCCC[C@H]1S(=O)(=O)C(C)(C)C)C(C)(C)C)C2(C)C` (some centres unmarked) [Compound 398]: the inhibition constant (Ki) was over 250 nM.

On to `CC1([C@H](NC(=O)NC2(CS(=O)(=O)C(C)(C)C)CCCCC2)C(=O)N2C[C@H]3[C@@H]([C@H]2C(=O)NC(CC2CC2)C(=O)C(=O)NCC2CCC2)C3(C)C)CCCCC1` (some centres unmarked) [Compound 410], for which the Ki was under 75 nM.

`CCCC[C@H](NC(=O)[C@@H]1[C@@H]2[C@H](CN1C(=O)[C@@H](NC(=O)NC1(CS(=O)(=O)C(C)(C)C)CCCCC1)C(C)(C)C)C2(C)C)C(=O)C(=O)NCCC` [Compound 883-cj]: the Ki is under 75 nM.

With `C#CCCC(NC(=O)[C@@H]1[C@@H]2[C@H](CN1C(=O)[C@@H](NC(=O)N[C@H]1CCCC[C@H]1S(=O)(=O)C(C)(C)C)C(C)(C)C)C2(C)C)C(=O)C(=O)NCC=C` (some centres unmarked) [Compound 399], the Ki is 75 to 250 nM.

Take `C=CCNC(=O)C(=O)C(CC1CC1)NC(=O)[C@@H]1[C@@H]2[C@H](CN1C(=O)[C@@H](NC(=O)NC1(CS(=O)(=O)C(C)(C)CCC)CCCCC1)C(C)(C)C)C2(C)C` (some centres unmarked) [Compound 406]: the Ki is under 75 nM.

With `CC(C)(C)[C@H](NC(=O)N[C@H]1CCCC[C@H]1S(=O)(=O)C(C)(C)C)C(=O)N1C[C@H]2[C@@H]([C@H]1C(=O)NC(CC1CCC1)C(=O)C(N)=O)C2(C)C` (some centres unmarked) [Compound 397], the Ki lay in the range of 75 to 250 nM.

Take `C=CCNC(=O)C(=O)C(CC1CC1)NC(=O)[C@@H]1[C@@H]2[C@H](CN1C(=O)[C@@H](NC(=O)NC1(CS(=O)(=O)C(C)C)CCCCC1)C(C)(C)C)C2(C)C` (some centres unmarked) [Compound 409]: the Ki was under 75 nM.
